# Target: Cathepsin L (Homo sapiens, UniProt P07711)
# By UniProt entry, the sequences of proteins in these tests, tags left out. Residues count along the entry.
# UniProt P07711, 114-333: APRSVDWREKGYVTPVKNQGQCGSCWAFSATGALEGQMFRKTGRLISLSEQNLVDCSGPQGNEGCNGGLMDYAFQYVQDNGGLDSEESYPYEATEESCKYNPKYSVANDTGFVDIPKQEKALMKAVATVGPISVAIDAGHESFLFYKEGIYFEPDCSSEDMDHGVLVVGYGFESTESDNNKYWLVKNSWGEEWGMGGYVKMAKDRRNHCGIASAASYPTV
# Assay: Cathepsin L kinetic assay
compound,measurement,value
"CC[C@H](C)[C@@H](C(=O)O[C@@H](CC(C)C)C(=O)N[C@@H](CC(C)C)C(=O)N[C@H](/C=C/C(=O)N1C(=O)C=C(OC)[C@@H]1CC(C)C)Cc1ccccc1)N(C)C [compound 10, (S)-1-(((S)-1-(((S,E)-5-((S)-2-Isobutyl-3-methoxy-5-oxo-2,5-dihydro-1H-pyrrol-1-yl)-5-oxo-1-phenylpent-3-en-2-yl)amino)-4-methyl-1-oxopentan-2-yl)amino)-4-methyl-1-oxopentan-2-yl dimethyl-L-isoleucinate]",kinact/KI,8.73e+06 M⁻¹ s⁻¹
